Measurements reported in publication PMC8976073 (Nature Communications, 2022).

Assays:
[1] = biological target: T1, FPR2 (Homo sapiens, UniProt P25090); assay: Inositol-phosphate (IP) accumulation assay, FPR2 (wild type and mutants) with chimeric GαΔ6qi4myr in HEK293F cells; assay type: cell-based; conditions: FPR2 WT
T1 sequence (P25090 1-351): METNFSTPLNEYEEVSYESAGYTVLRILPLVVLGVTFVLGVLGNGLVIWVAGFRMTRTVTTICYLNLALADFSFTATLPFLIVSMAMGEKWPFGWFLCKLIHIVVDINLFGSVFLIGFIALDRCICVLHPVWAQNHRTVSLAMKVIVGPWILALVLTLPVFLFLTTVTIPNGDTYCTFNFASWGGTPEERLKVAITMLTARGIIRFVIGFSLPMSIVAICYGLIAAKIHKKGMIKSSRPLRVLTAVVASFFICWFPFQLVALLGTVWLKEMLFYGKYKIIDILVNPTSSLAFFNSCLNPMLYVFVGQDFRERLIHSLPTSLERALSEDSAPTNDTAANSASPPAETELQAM
Description: Flag-tagged wild-type FPR1 and FPR2 and mutants were cloned into the pTT5 vector and expressed in HEK293F cells. Cells were cotransfected with the plasmids of receptor and a chimeric Gα protein GαΔ6qi4myr, which redirects the Gαi signaling pathway to the Gαq phospholipase-C pathway, at a ratio of 1:2 (w/w), and were harvested 48 h post transfection. The cell-surface expression was measured as described above.
The IP-One Gq assay kit (Cisbio Bioassays, 62IPAPEB) was used to measure the peptide agonist-induced IP production. […] Then, the cells were supplemented with 3 μl cryptate-labeled anti-IP1 monoclonal antibody (1:20 diluted in lysis and detection buffer) and 3 μl d2-labeled IP1, and incubated at room temperature for another 1 h. […] The accumulation of IP1, EC50, and pEC50 were calculated using nonlinear regression (curve fit) according to a standard dose–response curve in GraphPad Prism 8.0 (GraphPad software).

[2] = biological target: T1, FPR2; assay: Competition binding: inhibition of WK(FITC)YMVm binding to FPR2 (wild type and mutants), HEK293F cells; parameters: expressed in transfected cells; host or cells: HEK293F cells, pTT5 vector, co-transfected with GαΔ6qi4myr (1:2 w/w); conditions: FPR2 WT; competition with WK(FITC)YMVm
Description: The genes of wild-type FPR1 and FPR2 and mutants with a Flag tag at the N termini were cloned into pTT5 vector (Invitrogen) and expressed in HEK293F cells (Invitrogen). Cells were harvested 48 h post transfection with 1 μg ml^−1 plasmid. Cell-surface expression of the receptors was measured by mixing 10 μl cells with 15 μl of TBS buffer supplemented with 4% BSA, 20% (v/v) viability-staining solution 7-AAD (Invitrogen, Cat#00-6993-50), and 0.1% (v/v) anti-FLAG M2-FITC antibody (Sigma, Cat#F4049) at 4 °C for 20 min. After incubation, 175 μl of TBS buffer was added and the fluorescent signal was measured using a flow-cytometry reader (Guava easyCyte HT, Millipore). Then, the cells were washed and resuspended to a final concentration of 1 × 10^6 cells per ml in Hanks’ Balanced Salt Solution (HBSS) buffer supplemented with 0.5% bovine serum albumin (BSA) and 20 mM HEPES, pH 7.4.
The mean fluorescent intensity of each well was then read by the FCM reader. Total binding and nonspecific binding were measured in the absence and presence of the unlabeled ligand (200 μM WKYMVm), respectively. […] Mean fluorescent-intensity values were measured by flow cytometry. Data were analyzed using Prism 8.0 (GraphPad software).

potency of peptide variant (in words) [1]	binding to FPR2 (in words) [2]	Substance
substantially reduced potency	–	Ab42-D1A: Aβ42 variant D1A
–	incapable of binding	Aβ1-12: N-terminal fragment of Aβ (DAEFRHDSGYEV; Amyloid-beta protein 42; UniProt P05067 672-683, looked up, fragment)
